The chains behind the UniProt entries cited, without tags or fusion partners.
UniProt P03372, whole entry: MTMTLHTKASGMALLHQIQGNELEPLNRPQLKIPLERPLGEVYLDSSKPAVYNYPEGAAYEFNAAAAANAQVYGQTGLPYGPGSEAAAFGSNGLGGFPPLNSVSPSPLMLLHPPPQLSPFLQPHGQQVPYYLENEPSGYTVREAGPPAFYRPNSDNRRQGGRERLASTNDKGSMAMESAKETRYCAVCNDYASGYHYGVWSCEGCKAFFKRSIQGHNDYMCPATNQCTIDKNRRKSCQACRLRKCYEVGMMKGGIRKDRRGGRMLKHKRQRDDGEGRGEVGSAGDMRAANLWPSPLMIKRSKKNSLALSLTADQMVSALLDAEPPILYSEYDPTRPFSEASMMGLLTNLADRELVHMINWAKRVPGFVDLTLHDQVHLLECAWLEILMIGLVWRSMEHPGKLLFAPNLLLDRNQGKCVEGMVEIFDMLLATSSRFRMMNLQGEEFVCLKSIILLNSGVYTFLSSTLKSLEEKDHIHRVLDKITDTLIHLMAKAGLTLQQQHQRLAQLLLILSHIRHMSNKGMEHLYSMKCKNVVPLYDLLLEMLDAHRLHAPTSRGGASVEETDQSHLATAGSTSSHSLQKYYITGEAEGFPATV

In patent US20250314869A1:

Legend:
Estrogen Receptor (ER) = biological target: T1, Estrogen Receptor (ER) (Homo sapiens, UniProt P03372); experiment: residence time imaging of ER-Halo (track length); format: cell-based; conditions: track length distribution versus DMSO or other ER modulators
T1 construct: expressed in transfected cells

[1] = biological target: T2, progesterone receptor (PR) (Homo sapiens, UniProt P06401); experiment: htSMT of Halo-PR in U2OS cells; format: cell-based; conditions: 1 μM antagonist in absence or presence of cognate agonist
T2 construct: expressed in transfected cells
T2 sequence (P06401 1-933): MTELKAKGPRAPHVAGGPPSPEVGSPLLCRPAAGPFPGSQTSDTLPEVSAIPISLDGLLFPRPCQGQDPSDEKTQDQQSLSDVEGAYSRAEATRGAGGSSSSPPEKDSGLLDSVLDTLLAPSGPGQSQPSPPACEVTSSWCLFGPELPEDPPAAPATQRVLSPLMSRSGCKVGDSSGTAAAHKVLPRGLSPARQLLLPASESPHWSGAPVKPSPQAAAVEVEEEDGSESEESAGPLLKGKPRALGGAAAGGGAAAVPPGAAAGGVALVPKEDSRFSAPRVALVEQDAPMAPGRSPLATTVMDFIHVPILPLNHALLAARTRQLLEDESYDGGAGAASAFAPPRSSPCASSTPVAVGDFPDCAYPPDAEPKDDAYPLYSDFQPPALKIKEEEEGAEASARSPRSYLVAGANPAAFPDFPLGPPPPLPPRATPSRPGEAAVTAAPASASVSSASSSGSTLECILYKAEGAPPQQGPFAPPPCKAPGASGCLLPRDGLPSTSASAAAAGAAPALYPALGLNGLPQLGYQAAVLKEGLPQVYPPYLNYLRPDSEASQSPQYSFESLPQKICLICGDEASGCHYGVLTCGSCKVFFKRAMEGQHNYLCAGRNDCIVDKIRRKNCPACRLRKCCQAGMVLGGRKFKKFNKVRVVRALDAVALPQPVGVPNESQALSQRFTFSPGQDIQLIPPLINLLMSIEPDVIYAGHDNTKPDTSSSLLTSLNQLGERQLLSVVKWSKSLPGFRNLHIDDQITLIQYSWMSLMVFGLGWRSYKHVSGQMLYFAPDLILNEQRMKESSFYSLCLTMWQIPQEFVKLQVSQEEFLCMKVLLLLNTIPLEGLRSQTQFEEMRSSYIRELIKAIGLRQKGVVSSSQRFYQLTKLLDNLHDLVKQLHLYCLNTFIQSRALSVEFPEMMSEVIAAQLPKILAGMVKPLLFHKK

C[C@]12CC[C@@H]3c4ccc(O)cc4C[C@@H](CCCCCCCCC[S+]([O-])CCCC(F)(F)C(F)(F)F)[C@H]3[C@@H]1CC[C@@H]2O (some centres unmarked)
ER binding (residence) times on chromatin (Estrogen Receptor (ER)): longer binding times

CC#C[C@]1(O)CC[C@H]2[C@@H]3CCC4=CC(=O)CCC4=C3[C@@H](c3ccc(N(C)C)cc3)C[C@@]21C [mifepristone]
PR fbound / chromatin binding [1]: behaves similarly to ER antagonists
